Our source for the koff and kon values is BindingDB's records for doi:10.1021/jm9708341 (University of Leipzig, 1998).

Molecules are shown by their SMILES.

This test addresses T1, Neutrophil elastase (Homo sapiens, UniProt P08246).
T1 sequence (P08246 whole entry): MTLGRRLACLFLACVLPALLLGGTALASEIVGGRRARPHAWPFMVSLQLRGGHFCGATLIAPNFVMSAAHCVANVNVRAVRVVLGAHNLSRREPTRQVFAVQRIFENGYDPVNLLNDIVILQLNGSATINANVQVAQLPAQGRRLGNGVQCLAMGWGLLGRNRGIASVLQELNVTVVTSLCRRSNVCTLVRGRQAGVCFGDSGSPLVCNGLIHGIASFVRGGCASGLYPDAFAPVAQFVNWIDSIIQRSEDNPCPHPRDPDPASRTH
Put plainly: Steady state inhibition constant for Human Leukocyte Elastase inhibition. As to conditions: for kon: read-out: kon (M-1-s-1). The procedure, abridged: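 Progress-curve assay at 25 °C with HLE purified from human leukocytes, in 50 mM sodium phosphate, 500 mM NaCl, pH 7.8. Substrate was MeOSuc-Ala-Ala-Pro-Val-pNA (200 μM final, 405 nm, 30–75 min) or, for a few inhibitors, Suc-Ala-Ala-Pro-Val-AMC (125 μM final, ex 340/em 460 nm, 4–5 min). At least five inhibitor concentrations were used, or 10 μM alone where solubility limited. Curves were fitted by slow-binding kinetics (k_obs = k_on'[I] + k_off).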

Consider `CCOc1nc2sc3c(c2c(=O)o1)CCCC3` [2-Ethoxy-5,6,7,8-tetrahydro-benzo[4,5]thieno[2,3-d][1,3]oxazin-4-one], for which the off-rate (koff) (in general, a measure of how fast the partners let go of each other) is 0.000127 s⁻¹ and the kon (in general, the rate constant with which the complex forms) came to 93600 M⁻¹ s⁻¹.
In the same order, the values of `CCOc1nc2sc(C)c(C)c2c(=O)o1` [2-Ethoxy-5,6-dimethyl-thieno[2,3-d][1,3]oxazin-4-one] are 0.00013 s⁻¹ and 12200 M⁻¹ s⁻¹.
For `Cc1sc2nc(OCC(C)C)oc(=O)c2c1C` [2-Isobutoxy-5,6-dimethyl-thieno[2,3-d][1,3]oxazin-4-one], in that order: 2.92e-05 s⁻¹ and 219 M⁻¹ s⁻¹.
In the same order, the values of `O=c1oc(SCc2ccccc2)nc2sc3c(c12)CCCC3` [2-Benzylsulfanyl-5,6,7,8-tetrahydro-benzo[4,5]thieno[2,3-d][1,3]oxazin-4-one] are 6.92e-05 s⁻¹ and 239 M⁻¹ s⁻¹.
Consider `CCCOc1nc2sc3c(c2c(=O)o1)CCCC3` [2-Propoxy-5,6,7,8-tetrahydro-benzo[4,5]thieno[2,3-d][1,3]oxazin-4-one], for which the koff was found to be 0.000142 s⁻¹ and the on-rate constant (kon) came to 99300 M⁻¹ s⁻¹.
For `CSc1nc2sc(C)c(C)c2c(=O)o1` [5,6-Dimethyl-2-methylsulfanyl-thieno[2,3-d][1,3]oxazin-4-one], in that order: 0.000567 s⁻¹ and 16200 M⁻¹ s⁻¹.
In the same order, the values of `CCOc1nc2scc(C(C)C)c2c(=O)o1` [2-Ethoxy-5-isopropyl-thieno[2,3-d][1,3]oxazin-4-one] are 0.000429 s⁻¹ and 76400 M⁻¹ s⁻¹.
For `CC(C)Nc1nc2sccc2c(=O)o1` [2-Isopropylamino-thieno[2,3-d][1,3]oxazin-4-one], in that order: 0.000134 s⁻¹ and 3200 M⁻¹ s⁻¹.
As for `CCN(CC)c1nc2sc3c(c2c(=O)o1)CCCC3` [2-Diethylamino-5,6,7,8-tetrahydro-benzo[4,5]thieno[2,3-d][1,3]oxazin-4-one], the koff came out at 6.12e-05 s⁻¹ and the kon amounted to 3750 M⁻¹ s⁻¹.
In the same order, the values of `COC(=O)CSc1nc2sc3c(c2c(=O)o1)CCCC3` [(4-Oxo-5,6,7,8-tetrahydro-4H-benzo[4,5]thieno[2,3-d][1,3]oxazin-2-ylsulfanyl)-acetic acid methyl ester] are 2.92e-05 s⁻¹ and 1630 M⁻¹ s⁻¹.
For `CCSc1nc2sc(C)c(C)c2c(=O)o1` [2-Ethylsulfanyl-5,6-dimethyl-thieno[2,3-d][1,3]oxazin-4-one], in that order: 0.00358 s⁻¹ and 1.31e+06 M⁻¹ s⁻¹.
In the case of `Cc1sc2nc(SCc3ccccc3)oc(=O)c2c1C` [2-Benzylsulfanyl-5,6-dimethyl-thieno[2,3-d][1,3]oxazin-4-one], the koff stood at 0.000358 s⁻¹ and the kon was 3540 M⁻¹ s⁻¹.
For `CC(C)COc1nc2sc3c(c2c(=O)o1)CCCC3` [2-Isobutoxy-5,6,7,8-tetrahydro-benzo[4,5]thieno[2,3-d][1,3]oxazin-4-one], in that order: 5.15e-05 s⁻¹ and 1010 M⁻¹ s⁻¹.
For `CC(C)Nc1nc2sc3c(c2c(=O)o1)CCCC3` [2-isopropylamino-5,6,7,8-tetrahydro-benzo[4,5]thieno[2,3-d][1,3]oxazin-4-one], in that order: 0.000201 s⁻¹ and 1390 M⁻¹ s⁻¹.
Consider `CCCOc1nc2sc(C)c(C)c2c(=O)o1` [5,6-Dimethyl-2-propoxy-thieno[2,3-d][1,3]oxazin-4-one], for which the off-rate constant (koff) amounted to 6.28e-05 s⁻¹ and the kon amounted to 15600 M⁻¹ s⁻¹.
